Laboratory results as given in patent publication US20260384421A1, “NOVEL COMPOUNDS THAT CAN BE USED AS THERAPEUTIC AGENTS” (published 2026).
Like-named read-outs stand apart in the source and are kept apart here.

Experiments:
MDA-MB-231 cells = assay: alamarBlue proliferation assay with MDA-MB-231 cells (glucose-free Leibovitz's L-15 medium)
JURKAT cells = assay: alamarBlue proliferation assay with JURKAT cells; details: read-out: Activity on JURKAT (IC50), day 5
Description: (§1) These hyperproliferative processes can be benign or malignant and include hyperplasia, neoplasia, cancer and pre-cancerous lesions, and metastases. The antiproliferative activities of compounds falling under general formula (I) were investigated on human primary epidermal keratinocytes (HPEK) and human, murine and canine cell lines derived from hyperproliferative tissue or different cancer types, including MDA-MB-231, ZR-75-30, HCC-1395, HCC-1937, and T-47D all originating from cancer of the breast, JURKAT, RPMI-8402, LOUCY, TANQUE, REC-1, HL-60, NB-4 all originating from different types of blood cancer including lymphoma and leukemia of T-cells, B-cells and myeloid cells, TT originating from cancer of the neuroendocrine system, HeLa originating from cancer of the cervix, 23132/87, SW-948, and HCT-116 all originating from cancer of the gastrointestinal tract including stomach and colon, BHY originating from cancer of the mucosal epithelium, A-431 originating from cancer of the skin, HEP-G2 originating from cancer of the liver, NCI-H460 and A-549 both originating from cancer of the lung, PANC-1 originating from cancer of the pancreas, U-87 MG originating from cancer of the brain, A-375 and RVH-421 both originating from cancer of melanocytes, SW-1353 originating from cancer of bone-derived chondrocytes, C2C12 a mouse cell line originating from hyperproliferative muscle progenitor cells, LL/2 a mouse cell line originating from cancer of the lung, CF21.T a dog cell line originating from cancer of the connective tissue. To this end, according cells were seeded into 96-well plates (CORNING #3598) suitable for fluorescence assays at following initial cell numbers: 1000 cells per well for HPEK; 3000 cells per well for MDA-MB-231, 8000 cells per well for ZR-75-30, 1500 cells per well for HCC-1395, 1500 cells per well for HCC-1937, 3000 cells per well for T-47D, 1500 cells per well for JURKAT, 5000 cells per well for RPMI-8402, 9000 cells per well for LOUCY, 1500 cells per well for TANQUE, 9000 cells per well for REC-1, 1000 cells per well for HL-60, 1000 cells per well for NB-4, 9000 cells per well for TT, 2000 cells per well for HeLa, 2000 cells per well for 23132/87, 9000 cells per well for SW-948, 700 cells per well for HCT-116, 1500 cells per well for BHY, 700 cells per well for A-431, 1500 cells per well for HEP-G2, 500 cells per well for NCI-H460, 1000 cells per well for A-549, 1500 cells per well for PANC-1, 2500 cells per well for U-87 MG, 700 cells per well for A-375, 1500 cells per well for RVH-421, 2000 cells per well for SW-1353, 500 cells per well for C2C12, 500 cells per well for LL/2, and 3000 cells per well for CF21.T. In a volume of 90 μL per well of culture medium the cells were treated with compounds at indicated final concentrations by adding 10 μL per well of 10× compound working solutions from 1:100 pre-diluted 1000× compound DMSO stock-solutions in H2O (Water For Injection, WFI, Fisher Scientific, Gibco™ #A12873) or with the empty carrier DMSO (AppliChem, #A3672) at 0.1% v/v as control yielding a final volume of 100 μL per well. At day 5 after starting the treatments the cells were subjected to the alamarBlue® Proliferation Assay (Bio-Rad Serotec GmbH, BUF012B) according to the protocol of the manufacturer. The readout was taken with a multi-well plate-reader (Tecan Spark®) in the fluorescence mode with applying a filter for excitation at 560 nm (band width 10 nm) and for emission at 590 nm (band width 10 nm). Treatment for maximum proliferation inhibition with the commercial cytotoxic compound (S)-(+)-camptothecin (Fluorochem #M01564) at a concentration of 10 μM was included on each plate for assay quality control. Some of the test compounds of the present invention may have been obtained and applied as their salt forms.
(§2) The assays were performed in duplicate or more replicates of independent single experiments each containing a three- to six-fold replicate for every condition. […]

HL-60 cells = assay: alamarBlue proliferation assay with HL-60 cells; details: read-out: Activity on HL-60: IC50, RPMI 1640 medium, 10% FBS
SW-948 cells = assay: alamarBlue proliferation assay with SW-948 cells (glucose-free L-15 medium); details: read-out: Activity on SW-948: IC50, Leibovitz's L-15 medium, 10% FBS, 0% CO2
NCI-H460 cells = assay: alamarBlue proliferation assay with NCI-H460 cells; details: read-out: Activity on NCI-H460: IC50, RPMI 1640 medium, 10% FBS
A-549 cells = assay: alamarBlue proliferation assay with A-549 cells; details: read-out: Activity on A-549: IC50, DMEM medium, 10% FBS
U-87 MG cells = assay: alamarBlue proliferation assay with U-87 MG cells; details: read-out: Activity on U-87MG: IC50, EMEM medium, 10% FBS
Description: as §1, §2

RVH-421 cells = assay: alamarBlue proliferation assay with RVH-421 cells (glucose-free L-15 medium); details: read-out: Activity on RVH-421: IC50, Leibovitz's L-15 medium, 10% FBS, 0% CO2
SW-1353 cells = assay: alamarBlue proliferation assay with SW-1353 cells (glucose-free L-15 medium); details: read-out: Activity on SW-1353: IC50, Leibovitz's L-15 medium, 10% FBS, 0% CO2
HPEKp cells = assay: proliferation assay with human epidermal keratinocyte progenitors (HPEKp), selectivity versus MDA-MB-231
T-47D cells = assay: alamarBlue proliferation assay with T-47D cells; details: read-out: Activity on T-47D (IC50), day 5
Description: as §1, §2

TANQUE cells = assay: alamarBlue proliferation assay with TANQUE cells; details: read-out: Activity on TANOUE: IC50, RPMI 1640 medium, 10% FBS
NB-4 cells = assay: alamarBlue proliferation assay with NB-4 cells; details: read-out: Activity on NB-4: IC50, RPMI 1640 medium, 10% FBS
HCT-116 cells = assay: alamarBlue proliferation assay with HCT-116 cells; details: read-out: Activity on HCT-116: IC50, McCoy's 5A medium, 10% FBS
BHY cells = assay: alamarBlue proliferation assay with BHY cells; details: read-out: Activity on BHY: IC50, DMEM medium, 10% FBS
HEP-G2 cells = assay: alamarBlue proliferation assay with HEP-G2 cells; details: read-out: Activity on HEP-G2: IC50, RPMI 1640 medium, 10% FBS
LL/2 cells = assay: alamarBlue proliferation assay with LL/2 cells; details: read-out: Activity on LL/2: IC50; LL/2 murine Lewis lung carcinoma cells, DMEM medium, 10% FBS
CF21.T cells = assay: alamarBlue proliferation assay with CF21.T cells; details: read-out: Activity on CF21.T: IC50; CF21.T canine cells, DMEM medium, 10% FBS
Description: as §1, §2

A-431 cells = assay: alamarBlue proliferation assay with A-431 cells; details: read-out: Activity on A-431: IC50, DMEM medium, 10% FBS
A-375 cells = assay: alamarBlue proliferation assay with A-375 cells; details: read-out: Activity on A-375: IC50, DMEM medium, 10% FBS
[1] = tested on: mitochondrial transmembrane potential Δψm in A-549 cells; assay: mitochondrial activity assay (TMRE staining, mitochondrial transmembrane potential) on A-549 cells; details: A-549 cells, compounds at 10 μM, 2 h 40 min, TMRE staining, relative to DMSO = 1.0
C2C12 cells = assay: alamarBlue proliferation assay with C2C12 cells; details: read-out: Activity on C2C12: IC50; C2C12 murine myoblast cells, RPMI 1640 medium, 10% FBS
Description: as §1, §2

[2] = read-out: Activity (MDA): antiproliferative activity on MDA-MB-231 cells, IC50 category, MDA-MB-231 cells cultivated in glucose-free Leibovitz's L-15 medium
[3] = read-out: Activity on MDA-MB-231 (IC50), glucose-free Leibovitz's L-15, 10% FBS, day 5, alamarBlue
[4] = read-out: Activity (HPEK): antiproliferative activity on HPEK cells, IC50 category, HPEK cells cultivated in CnT-Prime medium

| IC50 (MDA-MB-231 cells; [2]) [nM] | IC50 (MDA-MB-231 cells; [3]) [nM] | IC50 (A-549 cells) [nM] | IC50 (U-87 MG cells) [nM] | IC50 (SW-1353 cells) [nM] | IC50 (HPEKp cells; [4]) [nM] | IC50 (T-47D cells) [nM] | IC50 (HCT-116 cells) [nM] | IC50 (A-431 cells) [nM] | IC50 (A-375 cells) [nM] | SMILES | IC50 (TANQUE cells) [nM] | IC50 (NB-4 cells) [nM] | IC50 (BHY cells) [nM] | IC50 (LL/2 cells) [nM] | IC50 (CF21.T cells) [nM] | other results |
| --- | --- | --- | --- | --- | --- | --- | --- | --- | --- | --- | --- | --- | --- | --- | --- | --- |
| < 1000 | ≤ 200 | ≤ 5000 | ≤ 20000 | ≤ 200 | < 10000 |  |  |  |  | O=C(c1ccc(Oc2ccc(C3CCC4(CC3)OCCO4)cc2CO)cc1)N1CC2(CN(Cc3ccccc3)C2)C1 |  |  |  |  |  | IC50 (JURKAT cells): ≤ 5000 nM; IC50 (HL-60 cells): ≤ 1000 nM; IC50 (SW-948 cells): ≤ 1000 nM; IC50 (NCI-H460 cells): ≤ 200 nM; IC50 (RVH-421 cells): ≤ 200 nM |
|  | ≤ 200 | ≤ 200 |  |  |  | ≤ 5000 | ≤ 200 |  |  | CC1(C)COC2(CCC(c3ccc(Oc4ccc(C(=O)N5CCN(Cc6ccc(Cl)cc6)CC5)cc4)c(CO)c3)CC2)OC1 | ≤ 200 | ≤ 200 | ≤ 200 | ≤ 1000 | ≤ 1000 | IC50 (HEP-G2 cells): ≤ 200 nM |
|  | ≤ 200 | ≤ 200 |  |  |  | ≤ 5000 | ≤ 200 |  |  | COC1CCC(c2ccc(Oc3ccc(C(=O)N4CCN(Cc5ccc(Cl)cn5)CC4)nc3)c(CO)c2)CC1 (stereo not shown) | ≤ 200 | ≤ 200 | ≤ 200 | ≤ 1000 | ≤ 1000 | IC50 (MDA-MB-231 cells; read-out: Activity (MDA), MDA-MB-231 cells, antiproliferative activity, class by IC50): < 1000 nM; IC50 (HEP-G2 cells): ≤ 200 nM; IC50 (HPEKp cells; read-out: Activity (HPEK), HPEK cells (HPEKp), antiproliferative activity, class by IC50): < 10000 nM |
|  |  | ≤ 200 |  |  |  | ≤ 5000 | ≤ 200 | ≤ 200 | ≤ 200 | O=C(c1ccc(Oc2ccc(C3CCC4(CC3)SCCCS4)cc2CO)cc1)N1CCN(Cc2ccc(Cl)cc2)CC1 | ≤ 200 | ≤ 200 | ≤ 200 | ≤ 200 |  | Activity: relative mitochondrial transmembrane potential Δψm [1]: Δψm ≤0.7 |
| < 1000 | ≤ 1000 | ≤ 5000 | ≤ 20000 | ≤ 5000 | < 10000 |  |  |  |  | O=C(c1ccc(Oc2ccc(C3CCC4(CC3)OCCO4)cc2CO)cc1)N1CCN(c2ccc(Cl)cc2)CC1 |  |  |  |  |  | IC50 (JURKAT cells): ≤ 5000 nM; IC50 (HL-60 cells): ≤ 5000 nM; IC50 (SW-948 cells): ≤ 5000 nM; IC50 (NCI-H460 cells): ≤ 5000 nM; IC50 (RVH-421 cells): ≤ 1000 nM |
|  | ≤ 200 | ≤ 200 |  |  |  | ≤ 1000 | ≤ 200 |  | ≤ 200 | COC1CCC(c2ccc(Oc3ccc(C(=O)N4CCN(Cc5ccc(OCC(F)(F)F)cc5)CC4)cc3)c(C=O)c2)CC1 (stereo not shown) | ≤ 200 | ≤ 200 | ≤ 200 | ≤ 200 |  | Activity: relative mitochondrial transmembrane potential Δψm [1]: Δψm ≤0.7 |
|  | ≤ 200 | ≤ 200 |  |  |  | ≤ 5000 | ≤ 200 | ≤ 200 | ≤ 200 | O=C(c1ccc(Oc2ccc(C3CCC4(CC3)SCCS4)cc2CO)cc1)N1CCN(Cc2ccc(Cl)cc2)CC1 | ≤ 200 | ≤ 200 | ≤ 200 | ≤ 200 | ≤ 5000 |  |
| < 1000 | ≤ 200 | ≤ 5000 | ≤ 20000 | ≤ 200 | > 10000 |  |  |  |  | COc1ccc(CN2CCCN(C(=O)c3ccc(Oc4ccc(C5CCC6(CC5)OCCO6)cc4CO)cc3)CC2)cc1 |  |  |  |  |  | IC50 (C2C12 cells): ≤ 5000 nM |
|  |  | ≤ 200 |  |  |  | ≤ 5000 | ≤ 200 | ≤ 200 | ≤ 200 | COc1ccc(CN2CCN(C(=O)c3ccc(Oc4ccc(C5CCC6(CC5)SCCCS6)cc4CO)cc3)CC2)cc1 | ≤ 200 | ≤ 200 | ≤ 200 | ≤ 200 |  |  |
|  | ≤ 200 | ≤ 200 |  |  |  | ≤ 5000 | ≤ 200 |  | ≤ 200 | COc1ccc(CN2CCN(C(=O)c3ccc(Oc4ccc(C5CCC6(CC5)SCCS6)cc4C=O)cc3)CC2)cc1 | ≤ 200 | ≤ 200 | ≤ 200 | ≤ 1000 | ≤ 5000 |  |
| < 1000 | ≤ 200 | ≤ 200 | ≤ 20000 | ≤ 200 | < 10000 |  | ≤ 200 | ≤ 200 |  | COc1ccc(CN2CCN(C(=O)c3ccc(Oc4ccc(C5CCC6(CC5)OCCO6)cc4CO)cc3)CC2)cc1 | ≤ 200 | ≤ 200 | ≤ 200 | ≤ 200 |  | IC50 (HL-60 cells): ≤ 200 nM; IC50 (SW-948 cells): ≤ 200 nM; IC50 (HEP-G2 cells): ≤ 200 nM; IC50 (NCI-H460 cells): ≤ 200 nM; IC50 (RVH-421 cells): ≤ 200 nM |
